# Reference: patent US20210324104A1 (INSERM INSTITUT NATIONAL DE LA SANT ET DE LA RECHERCHE M …, published 2021)
# Chains of the proteins cited; added tags and fusions are not shown. Residues count along the entry.
# UniProt Q9NQS3, 58-549 limits assumed: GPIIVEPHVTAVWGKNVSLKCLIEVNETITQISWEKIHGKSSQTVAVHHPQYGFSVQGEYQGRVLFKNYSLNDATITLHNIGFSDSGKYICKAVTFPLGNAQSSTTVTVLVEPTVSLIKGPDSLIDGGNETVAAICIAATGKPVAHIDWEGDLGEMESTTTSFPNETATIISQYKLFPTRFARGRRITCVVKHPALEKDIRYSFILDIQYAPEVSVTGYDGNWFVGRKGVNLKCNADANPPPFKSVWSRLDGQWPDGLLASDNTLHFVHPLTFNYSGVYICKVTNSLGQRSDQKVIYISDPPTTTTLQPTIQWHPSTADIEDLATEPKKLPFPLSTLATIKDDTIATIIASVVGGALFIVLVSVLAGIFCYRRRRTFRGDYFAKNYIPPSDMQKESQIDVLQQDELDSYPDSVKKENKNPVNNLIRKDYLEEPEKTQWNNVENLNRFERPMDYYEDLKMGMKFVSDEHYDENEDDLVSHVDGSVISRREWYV
# B1: 14A5.2 monoclonal antibody (antibody, V domains shown)
# VH: EVLLQQSGPELVKPGASVKIPCKASGYTFTDYTMDWVKQSHGKSLEWIGDINPNNDVTMYNEKFKGRATLTVDKSSSTAYMEVRSLTSEDTAVYYCVRGRGFAYWGQGTLVTVSA
# VL: DIVLTQSPASLIVSLGQRATISCRASQSVSTSSNSYMHWYQQKPGQPPKLLIRFASNLESGVPARFSGSGSGTYFTLNIHPVEEEDSATYYCQHSWEIPYTFGGGTKLEIK
# notes: Parental non-chimeric monoclonal antibody; also called 14A5.2 mab; 14A5.2-HRP
# Biological target: T1, nectin-3 (UniProt Q9NQS3 58-549, limits assumed)
# T1 construct: whole, on cells
# Test: western blot of lysates of MDA-MB-231 cells transfected with null vector (wt cells express nectin-1, -2, -3); similar results by FACS
binder,measurement,value
B1,binding result,no binding (tested: 1 µg/ml)
